Assay results reported in paper PMC7866418.
Changes are numbered by the printed parent chain. In names and notes the source's numbering stands.

Substrate: CCn1c(=NN=c2sc3cc(S(=O)(=O)O)ccc3n2CC)sc2cc(S(=O)(=O)O)ccc21
Assay: purified protein
Settings: 100 µM H2O2, 100 mM sodium acetate, pH 3.5, 40 °C

B1: PsaPOX (Pleurotus sapidus; A307E/A309S/G184D/G306A/I429V/L305Q/N314D/N350K/Q185P/S371I/V388A) (protein)
chain: MTTPAPPLDLNNIQGDILGGLPKKTETYFFFDVTNVDRFKANMTQFIPHVKTSAGIVKDREAIKEHKRQKRPGLVPMAAVNVSFSHLGLQKLGITDDLSDSSFTTGQRKDAEVLGDPGTKNGDTFTPAWEAPFLKDIHGVIFVAGDCHASVHKKLDEIKHIFGVGTSHASISEVTHVRGDVRPDPVSAHEHFGFLDGISNPAVDQFDQNPFPGQDSIRPGFILAKENGDSRAAARPDWAKDGSFLTFRYLFQMVPEFDDFLESNPIVLPGLSRKEGSELLGARIVGRWKSGAPIEITPLKDDPKQAEDSQRNNDFDFGDSLVRGDQTKCPFAAHIRKTYPRNDLEGPPLKADIDNRRIIRRGIQFGPEVTIQEHHDKKTHHGRGLLFACYSSSIDDGFHFIQQSWANAPNFPVNAVTSAGPIPPLDGVVPGFDAIIGQKVGGGIRQISGTNPNDPTTNITLPDQDFVIPRGGEYFFSPSISALKTKFAAGVASSAPQAQAPIST
For B1, the Km was 31.9 ± 2.3 µM, the kcat was 3.8 s⁻¹ and the kcat/Km was 119000 M⁻¹ s⁻¹.

B2: PsaPOX (Pleurotus sapidus) (protein)
chain: MTTPAPPLDLNNIQGDILGGLPKKTETYFFFDVTNVDRFKANMTQFIPHVKTSAGIVKDREAIKEHKRQKRPGLVPMAAVNVSFSHLGLQKLGITDDLSDSSFTTGQRKDAEVLGDPGTKNGDTFTPAWEAPFLKDIHGVIFVAGDCHASVHKKLDEIKHIFGVGTSHASISEVTHVRGDVRPGQVSAHEHFGFLDGISNPAVDQFDQNPFPGQDSIRPGFILAKENGDSRAAARPDWAKDGSFLTFRYLFQMVPEFDDFLESNPIVLPGLSRKEGSELLGARIVGRWKSGAPIEITPLKDDPKLGADAQRNNNFDFGDSLVRGDQTKCPFAAHIRKTYPRNDLEGPPLNADIDNRRIIRRGIQFGPEVTSQEHHDKKTHHGRGLLFVCYSSSIDDGFHFIQQSWANAPNFPVNAVTSAGPIPPLDGVIPGFDAIIGQKVGGGIRQISGTNPNDPTTNITLPDQDFVIPRGGEYFFSPSISALKTKFAAGVASSAPQAQAPIST
With B2 the Km was 33.0 ± 2.5 µM, the kcat was 6.8 s⁻¹ and the kcat/Km was 206000 M⁻¹ s⁻¹.

B3: PsaPOX (Pleurotus sapidus; S371H) (protein)
chain: B2 chain with S371H
B3 gave a Km of 25.8 ± 1.6 µM, a kcat of 10.5 s⁻¹ and a kcat/Km of 408000 M⁻¹ s⁻¹.
